Measured values from patent publication EP4834914A1, “SOLID-PHASE SYNTHESIS METHOD FOR GLP-1/GIP DUAL AGONIST” (dated 2026).

By UniProt entry, the sequences of proteins in these tests, tags left out. Residues count along the entry.
UniProt P43220, 24-463 limits assumed: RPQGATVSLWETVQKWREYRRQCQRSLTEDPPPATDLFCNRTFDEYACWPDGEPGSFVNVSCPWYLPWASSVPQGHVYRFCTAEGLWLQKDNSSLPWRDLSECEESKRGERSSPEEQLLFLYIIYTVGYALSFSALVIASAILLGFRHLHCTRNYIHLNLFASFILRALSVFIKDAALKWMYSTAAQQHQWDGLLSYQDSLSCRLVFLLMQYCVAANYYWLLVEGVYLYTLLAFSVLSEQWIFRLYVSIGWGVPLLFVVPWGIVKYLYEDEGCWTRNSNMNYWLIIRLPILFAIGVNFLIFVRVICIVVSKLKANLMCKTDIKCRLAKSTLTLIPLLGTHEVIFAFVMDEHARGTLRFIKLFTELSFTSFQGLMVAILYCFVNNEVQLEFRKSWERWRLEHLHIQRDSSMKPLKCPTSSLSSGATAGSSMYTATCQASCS
UniProt P48546, 22-466 limits assumed: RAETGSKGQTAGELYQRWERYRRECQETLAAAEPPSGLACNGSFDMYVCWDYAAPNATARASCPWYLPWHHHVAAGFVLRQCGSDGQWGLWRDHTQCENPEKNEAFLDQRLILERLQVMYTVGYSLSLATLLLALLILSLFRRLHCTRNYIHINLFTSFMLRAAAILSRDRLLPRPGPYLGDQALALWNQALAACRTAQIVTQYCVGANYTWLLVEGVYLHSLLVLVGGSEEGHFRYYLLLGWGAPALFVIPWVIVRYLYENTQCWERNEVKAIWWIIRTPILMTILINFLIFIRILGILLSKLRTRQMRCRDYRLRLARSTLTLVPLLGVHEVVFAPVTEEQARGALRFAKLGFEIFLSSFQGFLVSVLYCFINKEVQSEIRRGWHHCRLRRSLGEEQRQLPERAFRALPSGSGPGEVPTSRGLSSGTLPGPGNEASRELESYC

Assays:
[1] = system: db/db mice; test: Pharmacodynamic effects on blood glucose in diabetic model mice; details: male db/db mice, single subcutaneous administration, 10 nmol/kg, 0 to 120 hours, significant difference versus vehicle group; two study groups (Group 1, Group 2)
Experimental: In this study, db/db mice were subcutaneously single administered, and the changes in the blood glucose, the food intake, and the body weight of the mice were measured to illustrate the hypoglycemic effects of the compounds according to the present invention as well as the duration of the drug effect. In this study, 8-9 week old male db/db mice were used. The db/db mice were placed in an individual ventilated cage (IVC) facility with a controlled temperature (20-26°C) and humidity (40-70%) and a controlled 12h:12h light-dark cycle. The mice can receive food and water ad libitum. Blood was sampled at the tail tip, and the base blood glucose was measured by a Roche blood glucose meter. The mice were randomly divided into groups according to the initial blood glucose and initial body weight (n=6/group), and each group had similar body weight and blood glucose.
The compounds of the invention (10 nmol/kg) were dissolved in a solvent (PBS containing 0.1% Tween 20, pH 7.2-7.4). At the set time point (0 to 120 hours), the recorded hypoglycemic duration of the polypeptide compounds has a significant difference vesus the vehicle group. Table 8. Hypoglycemic Duration of the Polypeptide

[2] = biological target: GLP-1R (Homo sapiens, UniProt P43220); test: In vitro receptor binding, [125I]GLP-1 displacement on membranes; details: ratio of the Ki value of the endogenous ligand (GLP-1) to the Ki value of the test compound; [125I]GLP-1 0.15 nM
Experimental: hGLP-1 and the compound of the present invention were dissolved in DMSO and stored at -80°C. 89 µL of membrane dissolved in binding buffer (50 mM Hepes, pH 7.4, 5 mM MgCl2 , 5 mM EDTA, 0.005% TWEEN, 0.005% HSA) was transferred to a 96-well test plate (5 µg/well). The compound was diluted in DMSO, and then, 1 µL of the diluted compound or 100% DMSO was added to the test plate containing the membrane solution. 10 µL of [125I] GLP-1 was further added (the final concentration in the reaction was 0.15 nM). The test plate was left at room temperature for 90 minutes. The membrane complexes were harvested into a GF/B plate precoated with 0.5% PEI by using a Cell Harvester, and washed for 3 times with 500 µL of pre-cooled elution buffer (50 mM Hepes, pH 7.4, 500 mM NaCl) at 4°C. After drying at 37°C for 2 hours, 50 µL of scintillation fluid was added to each well. The plate was read with a MicroBeta2 scintillation counter after sealing and settling for at least 1 hour so as to determine the membrane bound radioligand level.
(§1) The absolute IC50 concentration of the compound was derived by non-linear regression of the binding percent of [125I]GLP-1 versus the concentration of the compound added. The IC50 concentration was converted to Ki (Ki was the inhibition constant) using the Cheng-Prusoff equation.

[3] = biological target: GIPR (Homo sapiens, UniProt P48546); test: In vitro receptor binding, [125I]GIP displacement on membranes; details: ratio of the Ki value of the endogenous ligand (GIP) to the Ki value of the test compound; [125I]GIP 0.0315 nM
Experimental: hGIP and the polypeptide compound of the present invention were dissolved in DMSO and stored at -80°C. 98 µL of membrane dissolved in binding buffer (50 mM HEPES pH 7.4, 5 mM MgCl2, 1 mM CaCl2, 0.1% BSA, 0.005% Tween-20) was transferred to a 96-well test plate (15 µg/well). The compound was diluted in DMSO, and then, 2 µL of the diluted compounds or 100% DMSO was added to the test plate containing the membrane solution. 100 µL of [125I]GIP was further added (the final concentration in the reaction was 0.0315 nM). The test plate was left at room temperature for 90 minutes. The membrane complexes were harvested into a GF/B plate precoated with 0.5% PEI by using a Cell Harvester, and washed for 3 times with 500 µL of pre-cooled elution buffer (50 mM Tris-HCl pH 7.4, 125 mM NaCl) at 4°C. After drying at 37°C for 2 hours, 50 µL of scintillation fluid was added to each well. The plate was read with a MicroBeta2 scintillation counter after sealing and settling for at least 1 hour so as to determine the membrane bound radioligand level.
as §1, with “[125I]GIP” for “[125I]GLP-1”, “equation. Table 6. Receptor Binding Affinity of the Polypeptide” for “equation.”

| Substance | Hypoglycemic Duration [1] | GLP-1R Ki ratio [2] | GIPR Ki ratio [3] |
| --- | --- | --- | --- |
| H-Tyr^1-Aib^2-Glu^3-Gly^4-Thr^5-αMePhe^6-Thr^7-Ser^8-Asp^9-Tyr^10-Aib^11-Ile^12-Aib^13-Leu^14-Asp^15-Lys^16-Gln^17-Ala^18-Gln^19-Ala^20-Glu^21-Phe^22-Val^23-Lys^24(AEEA-AEEA-γGlu-γGlu-γGlu-CO-(CH2)16-COOH)-Trp^25-Leu^26-Leu^27-Lys^28-Gly^29-Gly^30-Pro^31-Ser^32-Ser^33-Gly^34-Ala^35-Pro^36-Pro^37-Pro^38-Ser^39-Lys^40-NH2 | 32 h | 0.17 | – |
| H-Tyr^1-Aib^2-Glu^3-Gly^4-Thr^5-αMePhe^6-Thr^7-Ser^8-Asp^9-Tyr^10-Aib^11-Ile^12-Aib^13-Leu^14-Asp^15-Lys^16-Gln^17-Ala^18-Gln^19-Ala^20-Glu^21-Phe^22-Val^23-Lys^24-Trp^25-Leu^26-Leu^27-Lys^28(AEEA-AEEA-γGlu-CO-(CH2)20-COOH)-Gly^29-Gly^30-Pro^31-Ser^32-Ser^33-Gly^34-Ala^35-Pro^36-Pro^37-Pro^38-Ser^39 -Lys^40-NH2 | 72 h | 0.56 | 0.04 |
| H-Tyr^1-Aib^2-Glu^3-Gly^4-Thr^5-αMePhe^6-Thr^7-Ser^8-Asp^9-Tyr^10-Aib^11-Ile^12-Aib^13-Leu^14-Asp^15-Lys^16-Gln^17-Ala^18-Gln^19-Ala^20-Glu^21-Phe^22-Val^23-Lys^24(AEEA-AEEA-γGlu-CO-(CH2)18-COOH)-Trp^25-Leu^26-Leu^27-Lys^28-Gly^29-Gly^30-Pro^31-Ser^32-Ser^33-Gly^34-Ala^35-Pro^36-Pro^37-Pro^38-Ser^39-Lys^40-NH2 | 72 h | 0.28 | 0.14 |
| H-Tyr^1-Aib^2-Glu^3-Gly^4-Thr^5-αMePhe^6-Thr^7-Ser^8-Asp^9-Tyr^10-Aib^11-Ile^12-Aib^13-Leu^14-Asp^15-Lys^16-Gln^17-Ala^18-Gln^19-Ala^20-Glu^21-Phe^22-Val^23-Lys^24(AEEA-AEEA-AEEA-γGlu-CO-(CH2)20-COOH)-Trp^25-Leu^26-Leu^27-Lys^28-Gly^29-Gly^30-Pro^31-Ser^32-Ser^33-Gly^34-Ala^35-Pro^36-Pro^37-Pro^38-Ser^39-Lys^40-NH2 | 104 h | 0.63 | 0.11 |
| H-Tyr^1-Aib^2-Glu^3-Gly^4-Thr^5-αMePhe^6-Thr^7-Ser^8-Asp^9-Tyr^10-Aib^11-Ile^12-Aib^13-Leu^14-Asp^15-Lys^16-Gln^17-Ala^18-Gln^19-Ala^20-Glu^21-Phe^22-Val^23-Lys^24(AEEA-AEEA-γGlu-CO-(CH2)20-COOH)-Trp^25-Leu^26-Leu^27-Lys^28-Gly^29-Gly^30-Pro^31-Ser^32-Ser^33-Gly^34-Ala^35-Pro^36-Pro^37-Pro^38-Ser^39-Lys^40-NH2 | 104 h | 0.37 | 0.08 |
| H-Tyr^1-Aib^2-Glu^3-Gly^4-Thr^5-αMePhe^6-Thr^7-Ser^8-Asp^9-Tyr^10-Aib^11-Ile^12-Aib^13-Leu^14-Asp^15-Lys^16-Gln^17-Ala^18-Gln^19-Ala^20-Glu^21-Phe^22-Val^23-Lys^24-Trp^25-Leu^26-Leu^27-Lys^28(AEEA-AEEA-AEEA-γGlu-CO-(CH2)16-COOH)-Gly^29-Gly^30-Pro^31-Ser^32-Ser^33-Gly^34-Ala^35-Pro^36-Pro^37-Pro^38-Ser^39-Lys^40-NH2 | 56 h | 0.93 | 0.09 |
| H-Tyr^1-Aib^2-Glu^3-Gly^4-Thr^5-αMePhe^6-Thr^7-Ser^8-Asp^9-Tyr^10-Aib^11-Ile^12-Aib^13-Leu^14-Asp^15-Lys^16-Gln^17-Ala^18-Gln^19-Ala^20-Glu^21-Phe^22-Val^23-Lys^24-Trp^25-Leu^26-Leu^27-Lys^28(AEEA-AEEA-γGlu-CO-(CH2)16-COOH)-Gly^29-Gly^30-Pro^31-Ser^32-Ser^33-Gly^34-Ala^35-Pro^36-Pro^37-Pro^38-Ser^39-Lys^40-NH2 | 72 h | 1.09 | 0.16 |
| H-Tyr^1-Aib^2-Glu^3-Gly^4-Thr^5-αMePhe^6-Thr^7-Ser^8-Asp^9-Tyr^10-Aib^11-Ile^12-Aib^13-Leu^14-Asp^15-Lys^16-Gln^17-Ala^18-Gln^19-Ala^20-Glu^21-Phe^22-Val^23-Lys^24-Trp^25-Leu^26-Leu^27-Lys^28-Gly^29-Gly^30-Pro^31-Ser^32-Ser^33-Gly^34-Ala^35-Pro^36-Pro^37-Pro^38-Ser^39-Lys^40-NH2 | 32 h | 19.52 | 8.82 |
| Tirzepatide | 56 h and 48 h | 0.28 | 0.06 |
| H-Tyr^1-Aib^2-Glu^3-Gly^4-Thr^5-αMePhe^6-Thr^7-Ser^8-Asp^9-Tyr^10-Aib^11-Ile^12-Aib^13-Leu^14-Asp^15-Lys^16-Gln^17-Ala^18-Gln^19-Ala^20-Glu^21-Phe^22-Val^23-Lys^24(AEEA-AEEA-γGlu-CO-(CH2)16-COOH)-Trp^25-Leu^26-Leu^27-Lys^28-Gly^29-Gly^30-Pro^31-Ser^32-Ser^33-Gly^34-Ala^35-Pro^36-Pro^37-Pro^38-Ser^39-Lys^40-NH2 | 56 h | 0.47 | – |
| H-Tyr^1-Aib^2-Glu^3-Gly^4-Thr^5-αMePhe^6-Thr^7-Ser^8-Asp^9-Tyr^10-Aib^11-Ile^12-Aib^13-Leu^14-Asp^15-Lys^16-Gln^17-Ala^18-Gln^19-Ala^20-Glu^21-Phe^22-Val^23-Lys^24-Trp^25-Leu^26-Leu^27-Lys^28(AEEA-AEEA-AEEA-γGlu-CO-(CH2)20-COOH)-Gly^29-Gly^30-Pro^31-Ser^32-Ser^33-Gly^34-Ala^35-Pro^36-Pro^37-Pro^38-Ser^39-Lys^40-NH2 | 104 h | 1.36 | 0.05 |
| H-Tyr^1-Aib^2-Glu^3-Gly^4-Thr^5-αMePhe^6-Thr^7-Ser^8-Asp^9-Tyr^10-Aib^11-Ile^12-Aib^13-Leu^14-Asp^15-Lys^16-Gln^17-Ala^18-Gln^19-Ala^20-Glu^21-Phe^22-Val^23-Lys^24-Trp^25-Leu^26-Leu^27-Lys^28(AEEA-AEEA-γGlu-γGlu-γGlu-CO-(CH2)16-COOH)-Gly^29-Gly^30-Pro^31-Ser^32-Ser^33-Gly^34-Ala^35-Pro^36-Pro^37-Pro^38-Ser^39-Lys^40-NH2 | 48 h | 1.45 | 0.05 |

Several values for one entry are separate records, joined by “and”; a condition that tells them apart may be missing. Equal entries are not always repeated.
